Values of other authors, collected in patent publication US20080009782A1.
Read-outs that look alike come from different tables or passages of the source. This is a selection: effects in other tests are not listed, and their absence says nothing.

Conditions: for plasma concentration after simple diffusion: citrate buffer at pH 5

SMILES | lag time (time required to achieve peak plasma levels) (electrotransport delivery) [h] | lag time (time required to achieve peak plasma levels) (passive transdermal patches) [h] | plasma concentration after simple diffusion
CCC(=O)N(c1ccccc1)C1(COC)CCN(CCc2cccs2)CC1 | 1.5 | 14 | did not produce any detectable plasma concentration
CCC(=O)N(c1ccccc1)C1CCN(CCc2ccccc2)CC1 | 1.5 | 14 | did not produce any detectable plasma concentration
